Reported properties for industrial, environmental and drug-like chemicals

Values as listed in the OPERA 2.9 repository of K. Mansouri.

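OPERA's authors assembled the values from existing databases and did not measure them anew. A listed value is a point estimate from one report or more. How each value was measured is not recorded, so precision varies. The measured form (salt, isomer or mixture) is not always the one drawn. Some entries may be limits or estimates that an upstream database listed as plain numbers.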

Melting points are in °C.
The boiling point refers to atmospheric pressure (760 mmHg), by the definition of the set.
logP is the log10 of the octanol-water partition coefficient; higher is more lipophilic.
Solubility in water is on a log10 molar scale (set defined at 25 °C).
Vapor pressure is log10 of mmHg; the set covers 15 to 30 °C, mostly 20 to 25 °C.
The unbound fraction in human plasma runs from 0 (all bound) to 1 (all free).
Clint is human hepatic intrinsic clearance in µL/min per million cells; 0 means that no clearance was seen.

O=C1c2ccccc2C(=O)N1C[C@H](O)CNc1ccc(N2CCOCC2=O)cc1 has logP 0.6 and log S -4.041 (log10 mol/L) and log vapor pressure -9.408 (log10 mmHg). Listed for C/C=C/CCC1CCC([C@H]2CC[C@H](CCC)CC2)CC1 (some centres undefined): melting point 75.1 °C and bp 365.8 °C and log vapor pressure -6.06 (log10 mmHg). Listed for N#Cc1cccc(C2=C3C(=O)NC(c4cccc(C#N)c4)=C3C(=O)N2)c1 [C.I. Pigment Orange 71]: log S -7.429 (log10 mol/L) and log vapor pressure -12.05 (log10 mmHg). Listed for CC(C)c1cc(C(C)C)c(N=C=O)c(C(C)C)c1N=C=O [2,4,6-Triisopropyl-m-phenylene diisocyanate]: bp 305.4 °C and log vapor pressure -3.037 (log10 mmHg). For O=C(O)CCCCCCC/C=C/CCCCCCCC(=O)O [(9E)-9-Octadecenedioic acid] the data give melting point 89.5 °C and log S -6.017 (log10 mol/L). CCN(CCC#N)c1ccc(N=Nc2ccc([N+](=O)[O-])cc2Cl)cc1 [C.I. Disperse Red 50] has logP 1.442 and log S -4.253 (log10 mol/L). COc1cc(S(=O)(=O)[O-])c(C)cc1/N=N/c1c(O)ccc2cc(S(=O)(=O)[O-])ccc12.[Na+].[Na+] is reported with melting point 244.7 °C and log S -2.073 (log10 mol/L) and hepatic Clint 0 µL/min/10^6 cells.

Listed for CCCCCCCCCCCOC1O[C@@H](CO)[C@H](O)[C@@H](O)[C@@H]1O (stereo partly drawn) [Undecyl glucoside]: logP 2.27 and log vapor pressure -10.48 (log10 mmHg). For Cl.Nc1c(OCCO)nn2ccccc12 the data give melting point 220 °C and logP -3.1 and log vapor pressure -7.782 (log10 mmHg). The entry for CC(C)(C)C1CCC2(CC1)OCC(CCl)O2 (configuration not stated) [2-Chlormethyl-8-(1,1-dimethylethyl)-1,4-dioxaspiro[4.5]decan] lists logP 4.46 and log S -4.522 (log10 mol/L) and log vapor pressure -2.878 (log10 mmHg). Cc1cc2c(c(C3CCCCC3)c1)OP(O)Oc1c(cc(C)cc1C1CCCCC1)C2 is reported with melting point 140.2 °C and logP 7.1 and log S -6.617 (log10 mol/L) and log vapor pressure -6.412 (log10 mmHg). C=CC(=O)OCC(C)(C)COC(=O)C=C [2,2-Dimethyl-1,3-propanediyl diacrylate] is reported with melting point 6 °C and log vapor pressure -1.523 (log10 mmHg). Cn1cc(C(=O)Cl)c(C(F)F)n1 [3-(Difluoromethyl)-1-methyl-1H-pyrazole-4-carbonyl chloride] is reported with melting point 7.5 °C and bp 272.5 °C and logP 0.253 and log S -1.794 (log10 mol/L) and log vapor pressure -0.997 (log10 mmHg). CCCCN1CCCC1=O [2-Pyrrolidinone, 1-butyl-] is reported with logP 1.265 and log vapor pressure -1.011 (log10 mmHg).

Listed for CCCCCC(C)CO (configuration not stated) [2-Methylheptan-1-ol]: melting point -93 °C and bp 193 °C and logP 3.05 and log S -2.528 (log10 mol/L) and log vapor pressure -1.426 (log10 mmHg). C=COCC1CCC(COC=C)CC1 (configuration not stated) [1,4-Bis[(ethenyloxy)methyl]cyclohexane] has bp 253 °C and logP 3.65 and log S -3.927 (log10 mol/L) and log vapor pressure -1.582 (log10 mmHg). COCCOCCOCCOCCOC [2,5,8,11,14-Pentaoxapentadecane] has logP -0.84 and log vapor pressure -2.928 (log10 mmHg). For CC(C)Cc1ccccc1 [Isobutylbenzene] the data give logP 4.68 and log S -4.12 (log10 mol/L) and log vapor pressure 0.286 (log10 mmHg). Listed for COc1nccnc1NS(=O)(=O)c1ccc(N)cc1 [Sulfalene]: log S -2.839 (log10 mol/L) and plasma fu 0.2548. The entry for CC/C(=C\CC1CC=C(C)C1(C)C)CO (stereo partly drawn) lists bp 278.7 °C and logP 4.3 and log S -3.907 (log10 mol/L) and log vapor pressure -3.892 (log10 mmHg). For CCCCCCCCCCCCCC[N+](C)(C)CC(=O)[O-] the data give bp 543 °C and log vapor pressure -8.369 (log10 mmHg).

CC(=O)OC/C=C(\C)C=O has logP 0.63 and log vapor pressure -1.002 (log10 mmHg). The entry for CCC([O-])=C1C(=O)CC(C(=O)[O-])CC1=O.[Ca+2] (configuration not stated) [Prohexadione-calcium] lists logP -2.9 and log S -3.308 (log10 mol/L). For Nc1c(OCCCCCCO)cc(O)c2c1C(=O)c1ccccc1C2=O the data give melting point 157 °C and logP 4.5 and log S -6.228 (log10 mol/L). CCN(CCC#N)c1ccc(N=Nc2ccc([N+](=O)[O-])cc2)cc1 [C.I. Disperse Orange 25] is reported with logP 4.38 and log S -7.209 (log10 mol/L) and log vapor pressure -6.255 (log10 mmHg). CC(C)(C)c1cc(CCC(=O)O)cc(-n2nc3ccccc3n2)c1O is reported with logP 2.75 and log vapor pressure -11.66 (log10 mmHg). For CCOC(=O)c1ccc(C)cc1O [Benzoic acid, 2-hydroxy-4-methyl-, ethyl ester] the data give logP 3.6 and log S -3.423 (log10 mol/L). For CC(C)CCCCCCCCCCCCCCC(=O)OCC(O)COCC(O)COC(=O)CCCCCCCCCCCCCCC(C)C (configuration not stated) [Di(isooctadecanoic) acid, diester with oxydi(propanedio] the data give melting point -10 °C and log S -5.367 (log10 mol/L) and log vapor pressure -5.41 (log10 mmHg).

C=CC(=O)OCc1ccccc1 [Benzyl acrylate] is reported with log S -2.444 (log10 mol/L) and log vapor pressure -1.076 (log10 mmHg). For O=C1NC(c2ccccc2)(c2ccccc2)C(=O)N1COP(=O)(O)O [Fosphenytoin] the data give melting point 174.8 °C and plasma fu 0.05. The entry for O=C(O)c1cc(O)cc(C(=O)O)c1 [5-Hydoxyisophthalic acid] lists logP 2.2 and log S -2.244 (log10 mol/L).